Values quoted from earlier work as cited in patent US20210220295A1, “TREATMENT OF CANCER BY GUANIDINIUM DERIVATIVES” (priority 2018, published 2021).

Tested on: brain cortical neurons or cardiomyocytes
Settings: cited from earlier work

Substance: N-(6-oxo-5,6-dihydro-phenanthridin-2-yl)-N,N-dimethylacetamide, HC1 [PJ-34]
- survival of non-dividing cells: not affected
